{"source": "patent US20120122830A1", "about": "“PREGNENOLONE SULFATE FOR THE TREATMENT OF NEUROLOGIC DISORDERS” (King Faisal Specialist Hospital & Research Centre, priority 2008, published 2012)", "tested_on": "B104 cells", "assay": "PREGS effect on B104 cell viability (dose-response)", "type": "cell-based, Rat", "conditions": "PREGS 0.25 to 40 μM, 24 h, compared to control cells", "protocol": "To determine if PREGS was neurotoxic, a dose-response study was conducted in cultured B104 cells. B104 cells were treated with various concentrations of PREGS, ranging from 0.25 to 40 μM, for 24 h.\nRat B104 neuroblastoma is chosen as the cell culture model due to its neuronal phenotype when grown in serum free medium (Schubert et al. Nature 1974; 249: 224-27). B104 cells are routinely grown in flasks of 75 cm^2 with complete culture medium containing Dulbecco's Modified Eagle Medium (DMEM) supplemented with 2 mM L-glutamine, penicillin G (50 U/ml), streptomycin sulfate (50 μg/ml), 10% fetal calf serum, and 5% horse serum. They are sub-cultured every week and the culture medium is changed every three days. Cultures are maintained at 37° C. in a humidified incubator in 90% air and 10% CO2 atmosphere. For the experiments, the cells are plated at the required density, in serum complete medium for 24 H and then the medium is replaced with a serum free one containing or not the desired treatment.", "note": "“Also recorded” adds a separate entry of the source."}
{"substance": "pregnenolone sulfate [PREGS]", "values": [{"measurement": "neurotoxicity / cell viability", "result": "not toxic and does not affect the viability; also recorded: not neurotoxic and does not affect the viability"}]}
